In PubChem BioAssay AID1671193 (National Center for Advancing Translational Sciences (NCATS), 2021):
This is a selection; strong and weak results do not stand in their true shares. Some results for these compounds are left out of this collection, so the calls shown say nothing about other tests. Results filed as inconclusive are left out. The source made the active and inactive calls. The call rests on the fitted dose curve; in most records, active means well fitted cell-killing curve with a large enough effect; inconclusive means small, poorly fitted or top-dose-only effect, or effect the other way; inactive means flat fitted curve, though single readings scatter.

Assay: GF-AFC viability counterscreen for inhibitors of alpha-synuclein gene (SNCA) expression; further: nearly all actives have a fitted effect of over 30% in size
Details: HEK-293-SNCA-luc viability, GF-AFC fluorescence, 24 h; at 57.1 µM (top of the series)
Source text: Assay Submitter (PI): Daniel R. Scoles Ph.D.
Department of Neurology, University of Utah, Salt Lake City, Utah
Accumulation of alpha-synuclein is a main underlying pathological feature of Parkinson's disease (PD) and alpha-synucleinopathies, for which lowering expression of the alpha-synuclein gene (SNCA) is a potential therapeutic avenue. Using a cell-based luciferase reporter of SNCA expression we performed a quantitative high throughput screen (qHTS) of 155,885 compounds in dose response. The screening assay was generated using genome editing to insert the luciferase gene downstream and in frame of the SNCA gene in HEK-293 cells (1). A viability counterscreen using GF-AFC was used to eliminate cytotoxic and false positive compounds. After in silico analysis (clustering, removal of frequent hitter nuisance chemotypes), inhibitor compounds from the primary screen were selected for follow up and re-tested at 11-doses in the SNCA-luc cells (luciferase and GF-AFC confirmation), and in CMV-luc expressing cell line to flag general transcriptional repressors.
Described herein are the results of the GF-AFC viability counterscreen for SNCA inhibitors; inactivity (no decrease in fluorescence signal, not cytotoxic) is the desired output for this assay.
1. Dansithong, W., Paul, S., Scoles, D. R., Pulst, S. M., and Huynh, D. P. (2015) Generation of SNCA Cell Models Using Zinc Finger Nuclease (ZFN) Technology for Efficient High-Throughput Drug Screening. PLoS ONE 10, e0136930.
SEQUENCE No. (e.g., 1, 2, 3, etc.); […] (e.g., Cells, Incubation, Reagent, etc.); VALUE; DESCRIPTION
1; Cells; 4 uL; Dispense 1500 HEK-293-SNCA-luc cells/well into Greiner 1536-well white / solid bottom tissue culture treated plate. The plate was covered with metal lids with gas-exchange holes.
2; Incubate; 24 hours; Incubate at 37C, 5% CO2, 95% RH.
3; Compounds; 23 nL; Compounds and controls were transferred via a Kalypsys Pin Tool (Wako USA) equipped with a 1536-slotted pin array. The plate was covered with metal lids with gas-exchange holes.
4; Incubate; 24 hours; Incubate at 37C, 5% CO2, 95% RH.
5; Dispense; 1 uL; Dispense Gly-Phe-7-amino-4-trifluoromethylcoumarin (GF-AFC, prepared at 125 uM in PBS) was added. The plate was covered with metal lids with gas-exchange holes.
6; Incubate; 30 min; Incubate at 37C, 5% CO2.
7; Detector; Fluorescence; Measure fluorescence with ViewLux microplate reader (PerkinElmer) equipped with 405/10 excitation and 540/25 emission filters.
8; Dispense; 3 uL; Dispense ONE-Glo ([…]) lucifase detection reagent was added to each well. Plates were covered with metal lids with gas-exchange holes.
9; Incubate; 15 min; Incubate at room temperature.
10; Detector; Luminescence; Measure luminescence with ViewLux microplate reader (PerkinElmer) equipped with clear filters.
NOTES (numbers refer to sequence above)
1; HEK-293-SNCA-luc were cultured and suspended in phenol-red free DMEM (4.5 g/L glucose, 25 mM HEPES, cat #21063 (Thermo)).
3; Compounds were added to the assay plate in an 11-point intra plate dose response, 1:3 titration in DMSO with a final concentration range of […]. Vehicle-only plates, with DMSO being pin-transferred to every well, were inserted at the beginning of screening runs to confirm expected assay performance. Activity was normalized to wells containing medium only (-100% activity, full inhibition) and SNCA-luc cells treated with DMSO vehicle control (0% activity), contained on the same plate as test samples.
10; Signals were analyzed, and dose-response curves were fit using the Hill equation. Compounds in curve classes -1.1, -1.2, -2.1, -2.2 in the SNCA-luc assay were considered active. Compounds were eliminated from further consideration if also active (curve class -1.1, -1.2, -1.3, -1.4, -2.1, -2.2, -2.3, -2.4) in the GF-AFC cytotoxicity assay.

Which activity change, negative = cytotoxicity does the source give for `COc1cc(C(=O)NCC2(N(C)C)CCCCC2)cc(OC)c1OC` here?
The activity change, negative = cytotoxicity was inactive: 11.1%.

Which activity change, negative = cytotoxicity does the source give for `Cc1cccc(C(=O)NCC2(N(C)C)CCCCC2)c1` here?
Its activity change, negative = cytotoxicity is inactive: -8.94%.

With `CC(C)Oc1ccc(C(=O)NCC2(N(C)C)CCCCC2)cc1` as the compound, how does the activity change, negative = cytotoxicity read?
Its activity change, negative = cytotoxicity is inactive: -6.73%.

With `COc1cccc(C(=O)NCC2(N3CCOCC3)CCCCC2)c1` as the compound, how does the activity change, negative = cytotoxicity read?
The activity change, negative = cytotoxicity was inactive: -21.8%.

Which activity change, negative = cytotoxicity does the source give for `CC(C)COc1ccc(C(=O)NCC2(N(C)C)CCCCC2)cc1` here?
Its activity change, negative = cytotoxicity is inactive: -13.9%.

For `COc1ccc(C(=O)NCC2(N(C)C)CCCCC2)cc1Cl`, which activity change, negative = cytotoxicity is on record?
Its activity change, negative = cytotoxicity is inactive: 4.23%.

For `CCOc1cccc(C(=O)NCC2(N(C)C)CCCCC2)c1`, which activity change, negative = cytotoxicity is on record?
The activity change, negative = cytotoxicity was inactive: 19.6%.

For `CN(C)C1(CNC(=O)c2ccccc2[N+](=O)[O-])CCCCC1`, which activity change, negative = cytotoxicity is on record?
The activity change, negative = cytotoxicity was inactive: -1.11%.

For `CCCCOc1ccccc1C(=O)NCC1(N(C)C)CCCCC1`, which activity change, negative = cytotoxicity is on record?
Its activity change, negative = cytotoxicity is inactive: -11.5%.

With `CN(C)C1(CNC(=O)c2cccc(Cl)c2)CCCCC1` as the compound, how does the activity change, negative = cytotoxicity read?
Its activity change, negative = cytotoxicity is inactive: 18.8%.

Which activity change, negative = cytotoxicity does the source give for `CN(C)C1(CNC(=O)c2ccccc2F)CCCCC1` here?
Its activity change, negative = cytotoxicity is inactive: -2.4%.
